## Measured melting point values of organic chemicals

Data: OPERA 2.9 data sets, kmansouri/OPERA on GitHub.

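The numbers are reported measurements, compiled and curated for the OPERA QSAR suite. A listed value is a point estimate from one report or more. How each value was measured is not recorded, so precision varies. A value may pool stereoisomers or salt forms, and the file does not say which form was measured. Some entries may be limits or estimates that an upstream database listed as plain numbers.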

The melting point is given in degrees Celsius.
"via" names the databases from which the curators took the value.

{"smiles": "O=[N+]([O-])c1ccc2c(c1)CCCN2", "mp (°C)": "156", "via": "OCHEM"}
{"smiles": "CC(C)(C)C(N)=NO", "mp (°C)": "94", "via": "OCHEM"}
{"smiles": "Cc1cccc(NC(=O)C=NO)c1C", "mp (°C)": "111", "via": "OCHEM"}
{"smiles": "Cc1ccc(CC(=O)O)cc1C", "mp (°C)": "97", "via": "OCHEM"}
{"smiles": "Nc1nnc(-c2ccc(F)cc2)o1", "mp (°C)": "247", "via": "OCHEM"}
{"smiles": "O=[N+]([O-])c1cc(S(=O)(=O)N2CCCCC2)ccc1Cl", "mp (°C)": "62", "via": "OCHEM"}
{"smiles": "Cc1cc(NN)nc2c(C)cccc12", "mp (°C)": "169", "via": "OCHEM"}
{"smiles": "O=C(NCc1ccccc1)c1cccc(O)c1", "mp (°C)": "141", "via": "OCHEM"}
{"smiles": "CC(Cl)C(=O)NC(C)c1ccccc1", "stereo": "centres undefined", "mp (°C)": "90", "via": "OCHEM"}
{"smiles": "Nc1ccccc1C(=O)N1CCOCC1", "mp (°C)": "75", "via": "OCHEM"}
{"smiles": "CCNS(=O)(=O)c1cccc(C(=O)O)c1", "mp (°C)": "200", "via": "OCHEM"}
{"smiles": "Cc1nc(N)sc1-c1ccccc1", "mp (°C)": "164", "via": "OCHEM"}
{"smiles": "Nc1ccnn1C1CCCCC1", "mp (°C)": "81", "via": "OCHEM"}
{"smiles": "O=C(O)c1ccc(OCC(F)(F)F)cc1", "mp (°C)": "201", "via": "OCHEM"}
{"smiles": "COc1ccc(-n2c(C)cc(C=O)c2C)cc1", "mp (°C)": "134", "via": "OCHEM"}
{"smiles": "Nc1nc(SCc2ccccc2)ns1", "mp (°C)": "105", "via": "OCHEM"}
{"smiles": "S=c1ncn(-c2ccccc2)[nH]1", "mp (°C)": "174", "via": "OCHEM"}
{"smiles": "COc1ccc(S(=O)(=O)Cl)cc1[N+](=O)[O-]", "mp (°C)": "59", "via": "OCHEM"}
{"smiles": "CC(=O)c1cccc(OCC(=O)O)c1", "mp (°C)": "120", "via": "OCHEM"}
{"smiles": "O=[N+]([O-])c1c(Cl)ccc2ncccc12", "mp (°C)": "120", "via": "OCHEM"}
{"smiles": "O=C1C=CC(=C2NN=CO2)C=C1", "mp (°C)": "211", "via": "OCHEM"}
{"smiles": "O=C(O)c1cc2ccc(OC(F)(F)F)cc2[nH]1", "mp (°C)": "161", "via": "OCHEM"}
{"smiles": "O=C(O)c1ccc(N2CCNC2=O)cc1", "mp (°C)": "314", "via": "OCHEM"}
{"smiles": "Fc1ccc(Nc2n[nH]c(=S)s2)cc1", "mp (°C)": "186", "via": "OCHEM"}
{"smiles": "CC(C)(C)NS(=O)(=O)c1ccc(C(=O)O)cc1", "mp (°C)": "183", "via": "OCHEM"}
{"smiles": "Cc1sc(N)c(C#N)c1C", "mp (°C)": "135", "via": "OCHEM"}
{"smiles": "COc1cc(CCC(=O)O)ccc1O", "mp (°C)": "89.5", "via": "OCHEM"}

Excerpt, the opening 3 entries:

{"smiles": "O=[N+]([O-])c1ccc2c(c1)CCCN2", "mp (°C)": "156", "via": "OCHEM"}
{"smiles": "CC(C)(C)C(N)=NO", "mp (°C)": "94", "via": "OCHEM"}
{"smiles": "Cc1cccc(NC(=O)C=NO)c1C", "mp (°C)": "111", "via": "OCHEM"}